From US20250221989A1, “PHARMACEUTICAL COMPOSITION, USE THEREOF, AND METHOD FOR TREATING CANCER” (Genfleet Therapeutics (Shanghai) Inc., priority 2022, published 2025)

Test system: NCI-H2122 human non-small cell lung cancer model
Experiment: In vivo anti-tumor evaluation in NCI-H2122 human non-small cell lung cancer model
Design: species or system BALB/c nude mice
Conditions: for Tumor volume After grafting Day 5: baseline at grouping, n=8
Protocol: During the study, the health of the animals was observed daily. If there was a 10% weight loss in the animals, the administration dose was halved; if there was a 15% weight loss, the […] until a normal body weight was restored; or if the tumor volume in the animals exceeded 2,000 mm^3, the mouse was euthanized immediately. If the health condition met the following criteria, euthanasia was performed by the veterinarian:
BALB/c nude mice, aged 6-8 weeks, female, purchased from Beijing Vital River Laboratory Animal Technology Co., Ltd., Certificate No. 20170011008676, and housed in an SPF-grade environment.
Preparation: the compound of the formula (II) was prepared in a vehicle of 5% DMSO+10% Solutol HS 15+85% (6% HP-β-CD); cetuximab was prepared in a 0.9% sodium chloride injection.
NCI-H2122 cells were cultured in an RPMI 1640 medium containing 10% of FBS and 1% of penicillin-streptomycin in an incubator at 37° C. and 5% CO2. The cells were digested with 0.25% trypsin-EDTA for passaging as per conventional practice. When the cells were in the logarithmic growth phase and the confluence reached […], the cells were collected and counted. The cells were collected and adjusted to a final concentration of 2.0×10^6 cells/mL. Mice were grafted subcutaneously at the right dorsal region in a volume of 0.15 mL/3×10^5 cells/mouse. When the tumors grew to an average size of about 242 mm^3 (D5 after grafting), 32 tumor-bearing mice were selected, randomized into 4 groups of 8 mice each as per the tumor volume and the body weight, and treated according to the administration regimen shown in Table 1. The dose in mice was 10 mL/kg. The mice were weighed on an electronic balance twice weekly and the tumor volume was measured with a vernier caliper twice weekly. The study was ended on D17 after grafting, and the mice were euthanized after tumor volume measurement.
Tumor volume (TV)=(L×W^2)/2, where L denotes the long diameter of the tumor, and W is the short diameter of the tumor.
TGI (%)=[1−(avTi-0/avCi-0)]×100%, where avTi-0 denotes the average tumor volume of the treatment group on a specific day minus the average tumor volume of the treatment group at the baseline; avCi-0 denotes the average tumor volume of the vehicle control group on a specific day minus the average tumor volume of the vehicle control group at the baseline.
TWI=(1−TWtreatment/Dx/TWcontrol/Dx)×100%, where TWcontrol denotes the average tumor weight (g) of the control group, and TWtreatment denotes the average tumor weight (g) of the treatment group.
RCBW (%)=(BWi−BW0)/BW0×100%, where BWi is the body weight of a mouse on a specific day and BW0 is the body weight of the mouse at the baseline.
All experimental data analysis and graphing were performed using GraphPad Prism software (GraphPad Software). Tumor volumes and the body weights of the animals in all groups were statistically compared using two-way ANOVA, Dunnett's multiple comparisons test. Tumor weights of the groups at the endpoint were statistically compared using one-way ANOVA, Dunnett's multiple comparisons test. P<0.05 denotes a statistically significant difference. The tumor volume and weight and body weight of animals are expressed by mean±standard error (SEM).

[1] = mean ± SEM, compound of formula (II) 10 mpk p.o. q.d., cetuximab 1 mpk i.p. biw
[2] = Day 17, compound of formula (II) 10 mpk p.o. q.d., cetuximab 1 mpk i.p. biw
[3] = after 12 days treatment, mean ± SEM, compound of formula (II) 10 mpk p.o. q.d., cetuximab 1 mpk i.p. biw

Compound | Tumor volume After grafting Day 5 [1] | TGI [2] | TWI [2] | RCBW (relative change of body weight) (Day 17 vs baseline, mean ± SEM, compound of formula (II) 10 mpk p.o. q.d., cetuximab 1 mpk i.p. biw) | Body weight After grafting Day 17 [3] | Tumor volume After grafting Day17 [3] | Body weight After grafting Day 5 (baseline, mean ± SEM) | Tumor weight After grafting Day 17 (endpoint, mean ± SEM, compound of formula (II) 10 mpk p.o. q.d., cetuximab 1 mpk i.p. biw)
C=CC(=O)N1CCN2c3c(c(=O)n(-c4c(C)ccnc4C(C)C)c4nc(-c5c(O)cccc5F)c(Cl)cc34)N(C)C(=O)[C@H]2C1 [Compound of formula (II), (4aR,8R)-3-acryloyl-11-chloro-10-(2-fluoro-6-hydroxyphenyl)-8-(2-isopropyl-4-methylpyridin-3-yl)-6-methyl-2,3,4,4a,6,8-hexahydro-1H-pyrazino[1′,2′: 4,5] pyrazino[2,3-c][1,8]naphthyridine-5,7-dione] | 242.93 ± 11.14 mm^3 | – | – | – | – | – | – | –
Cetuximab | 242.79 ± 10.09 mm^3 | 50.11% | 13.24% | −6.46 ± 1.28 % | 19.74 ± 0.25 g | 692.74 ± 62.50*** mm^3 | 21.11 ± 0.24 g | 0.52 ± 0.05 g

Marks after values point to notes of the source that are not given here.
